By Ki is commonly meant a dissociation constant, usually derived from enzyme kinetics or from competition with a known ligand. Read a low Ki as a stronger hold on the target.

Amino acid sequences for entries named in this document (tags omitted).
UniProt P25099, whole entry: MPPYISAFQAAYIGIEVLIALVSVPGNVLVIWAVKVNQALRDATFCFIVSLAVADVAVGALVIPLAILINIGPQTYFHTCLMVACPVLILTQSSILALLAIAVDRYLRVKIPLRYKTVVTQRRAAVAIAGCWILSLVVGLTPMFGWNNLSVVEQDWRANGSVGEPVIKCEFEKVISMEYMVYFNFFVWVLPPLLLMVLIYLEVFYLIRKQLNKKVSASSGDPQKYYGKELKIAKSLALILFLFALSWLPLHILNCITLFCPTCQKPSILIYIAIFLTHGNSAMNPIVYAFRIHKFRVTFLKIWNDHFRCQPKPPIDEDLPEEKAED

The structures appear in SMILES notation.

The assay addresses Adenosine receptor A1 (Rattus norvegicus, UniProt P25099). Put plainly: Antagonism of binding of 1 nM [3H]cyclohexyladenosine to adenosine A1 receptors on rat cortical membranes. It is filed as cell membranes, Membrane.

Turning to `Cn1c(=O)c2[nH]c(-c3ccc(C(=O)O)cc3)nc2n(C)c1=O`, the Ki worked out at 3 µM.
